Assay results as given in patent US20200255529A1 (PIONYR IMMUNOTHERAPEUTICS, published 2020).

Chains of the proteins cited; added tags and fusions are not shown. Lines headed by an entry give the natural chain unless they say otherwise; changes in a name come on top. Residues count along the entry.
UniProt Q9NP99, 21-234 limits assumed: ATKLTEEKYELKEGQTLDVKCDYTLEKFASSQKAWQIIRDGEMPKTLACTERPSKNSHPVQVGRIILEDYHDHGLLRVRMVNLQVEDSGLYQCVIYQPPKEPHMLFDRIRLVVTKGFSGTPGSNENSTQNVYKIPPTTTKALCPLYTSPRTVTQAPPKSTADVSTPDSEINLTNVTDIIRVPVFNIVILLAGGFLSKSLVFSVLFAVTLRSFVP
UniProt Q9NP99, 21-205 limits assumed: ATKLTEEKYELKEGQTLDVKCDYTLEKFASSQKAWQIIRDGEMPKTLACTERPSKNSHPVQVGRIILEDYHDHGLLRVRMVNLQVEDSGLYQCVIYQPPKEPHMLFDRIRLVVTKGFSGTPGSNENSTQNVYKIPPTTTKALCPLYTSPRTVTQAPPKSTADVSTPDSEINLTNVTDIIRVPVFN

B1: PI64062 (afucosylated PI-4026-5-M100Q) (antibody, human IgG1, kappa)
heavy: not shown
light: DIQLTQSPSSLSASVGDRVTITCSASSSVSYMHWYQQKPGKAPKLLLYTTSNLASGVPSRFSGSGSGTDYTLTISSLQPEDFATYYCHQWSGYPTFGQGTKLEIKRTVAAPSVFIFPPSDEQLKSGTASVVCLLNNFYPREAKVQWKVDNALQSGNSQESVTEQDSKDSTYSLSSTLTLSKADYEKHKVYACEVTHQGLSSPVTKSFNRGEC
modifications: afucosylated Fc glycan (made in FUT8-deficient expi293 cells)
B2: PI64052 (afucosylated PI-4026-5-M100L) (antibody, human IgG1, kappa)
heavy: not shown
light: B1 light
modifications: afucosylated Fc glycan (made in FUT8-deficient expi293 cells)
B3: PI-4026-5 (antibody, human IgG1, kappa)
heavy: not shown
light: B1 light
notes: fucosylated form made in expi293 cells
B4: PI-4026-5-M100I (fucosylated) (antibody, human IgG1, kappa)
heavy: not shown
light: B1 light
B5: PI-4026-5-M100Q (fucosylated) (antibody, human IgG1, kappa)
heavy: not shown
light: B1 light
notes: hIgG1, fucosylated; also called fucosylated parent of PI64062
B6: PI-4026-5-M100E (fucosylated) (antibody, human IgG1, kappa)
heavy: not shown
light: B1 light
B7: PI-4026-5-M100L (fucosylated) (antibody, human IgG1, kappa)
heavy: not shown
light: B1 light
notes: hIgG1, fucosylated; also called fucosylated parent of PI64052
B8: afucosylated PI-4026-5-M100 (parent) (antibody, human IgG1, kappa)
heavy: not shown
light: B1 light
modifications: afucosylated Fc glycan (made in FUT8-deficient expi293 cells)
B9: afucosylated PI-4026-5-M100I (antibody, human IgG1, kappa)
heavy: not shown
light: B1 light
modifications: afucosylated Fc glycan (made in FUT8-deficient expi293 cells)
B10: afucosylated PI-4026-5-M100E (antibody, human IgG1, kappa)
heavy: not shown
light: B1 light
modifications: afucosylated Fc glycan (made in FUT8-deficient expi293 cells)
B11: PI-4026-6 (antibody, IgG1, V domains shown)
VH: QVQLVQSGAEVKKPGASVKMSCKASGYTFTDYVINWVRQAPGQGLEWIGEIYPGSGSTFYAQKFQGRATLTADTSTSTAYMEVSSLRSEDTAVYYCTRRMAAMDYWGQGTLVTVSS
VL: DIQLTQSPSSLSASVGDRITLTCSASSSVSYMHWYQQKPGKAPKLLLYTTSNLASGVPSRFSGSGSGTDYTLTISSVQPEDFATYYCHQWSGYPTFGQGTKLEIK
B12: PI-4026-7 (antibody, IgG1, V domains shown)
VH: B11 VH
VL: B11 VL with F82A
B13: PI-4026-10 (antibody, IgG1, V domains shown)
VH: B11 VH with T74K
VL: B11 VL with F82A
B14: PI-4026-8 (antibody, IgG1, V domains shown)
VH: B11 VH with T74K
VL: B11 VL with I19V, L21I, V77L
B15: PI-4026-2 (antibody, IgG1, V domains shown)
VH: B11 VH with M20V, I48M, A68V, L70M, A79V, V83L
VL: B11 VL with I19V, L21I, V77L
B16: PI-4026-9 (antibody, IgG1, V domains shown)
VH: B11 VH with T74K
VL: B11 VL
B17: PI-4026-3 (antibody, IgG1, V domains shown)
VH: B11 VH with M20V, I48M, A68V, L70M, A79V, V83L
VL: B11 VL
B18: PI-4026-4 (antibody, IgG1, V domains shown)
VH: B11 VH with M20V, I48M, A68V, L70M, A79V, V83L
VL: B11 VL with F82A
B19: PI-4026 (chimera) (antibody, human IgG1, V domains shown)
VH: QVQLQQSGPELVKPGTSVKMSCKASGYTFTDYVINWVKQRTGQGLEWIGEIYPGSGSTFYHEKFKGKATLTADKSSNTAYMQVSSLTSEDSAVYFCTRRMAAMDYWGQGTSVTVSS
VL: QIVLTQSPAIMSASLGEEITLTCSASSSVSYMHWYQQKSGTSPKLLLYTTSNLASGVPSRFSGTGSGTFYSLTISSVEAEDAADYYCHQWSGYPTFGGGTKLEIK
B20: PI-4026-1 (antibody, IgG1, V domains shown)
VH: B11 VH with M20V, I48M, A68V, L70M, A72R, A79V, V83L, T97A
VL: B11 VL with L4M, I19V, L21I, L47I, Y70F, V77L

molecular target: T1, human TREM1 on cells (human, UniProt Q9NP99 21-234); assay: flow cytometry on HEK293 cells over-expressing human TREM1, experiment 2
T1 construct: Used for over-expressing cell lines and for primary human monocytes and neutrophils; also called hTREM1; human TREM1 over-expressing HEK293 or expi293 cells
Description: (§1) An Alexa 647-conjugated anti-human Fcγ secondary antibody (Jackson Immunoresearch) diluted at 1:500 was used to detect bound primary antibody. The secondary antibody was incubated with the cells for 30 mins on ice. […] Fluorescence signal from bound antibody was assessed by flow cytometry (ThermoFisher Attune NxT). EC50 values were calculated in Prism Software (Graphpad).

EC50	Binder
3.88 nM	B1
3.97 nM	B2

molecular target: T1, human TREM1 on cells; assay: flow cytometry on human peripheral blood monocytes, experiment 3

EC50	Binder
0.57 nM	B1
0.73 nM	B2

molecular target: T2, His tagged-human TREM1 (human, UniProt Q9NP99 21-205, limits assumed); assay: SPR (Biacore T200), monomeric format: antibody captured, His-tagged human TREM1 as analyte
T2 construct: also called monomeric human TREM1; not shown: His tag

Kd	Binder
6.32 nM	B1
4.34 nM	B2

molecular target: T2, His tagged-human TREM1; assay: as above; remark: another data set of the same source

Kd	Binder
4.81 nM	B3
10.2 nM	B4
5.61 nM	B5
3.33 nM	B6
4.93 nM	B7

molecular target: T3, Human chimeric TREM1-mIgG Fc (human, UniProt Q9NP99 21-205, limits assumed); assay: SPR (Biacore T200), avid format: human TREM1-mIgG Fc captured, antibody as analyte
T3 construct: also called human TREM1-mIgG Fc; not shown: mouse IgG Fc

Kd	Binder
0.68 nM	B3
0.88 nM	B4
0.37 nM	B5
0.19 nM	B6
0.27 nM	B7

molecular target: T1, human TREM1 on cells; assay: flow cytometry on human peripheral blood monocytes, experiment 1

EC50	Binder
1.32 nM	B1
0.75 nM	B2

molecular target: T1, human TREM1 on cells; assay: flow cytometry on human peripheral blood monocytes, experiment 2

EC50	Binder
1.27 nM	B1
1.4 nM	B2

molecular target: T1, human TREM1 on cells; assay: flow cytometry on human peripheral blood monocytes

EC50	Binder
0.3 nM	B3
0.94 nM	B4
0.65 nM	B5
0.45 nM	B6
0.67 nM	B7

molecular target: T2, His tagged-human TREM1; assay: SPR (Biacore T200), monomeric format: antibody captured, His-tagged human TREM1 as analyte; remark: another data set of the same source

Kd	Binder
6.21 nM	B8
6.32 nM	B1
10.1 nM	B9
3.74 nM	B10
4.34 nM	B2

molecular target: T1, human TREM1 on cells; assay: flow cytometry on human peripheral blood monocytes; remark: another data set of the same source

EC50	Binder
0.6 nM	B8
1.32 nM	B1
1.06 nM	B9
0.3 nM	B10
0.75 nM	B2

molecular target: T3, Human chimeric TREM1-mIgG Fc; assay: SPR (Biacore T200), avid format: human TREM1-mIgG Fc captured, antibody as analyte; remark: another data set of the same source

Kd	Binder
0.39 nM	B1
0.15 nM	B2

molecular target: T1, human TREM1 on cells; assay: flow cytometry on HEK293 cells over-expressing human TREM1, experiment 1
Description: as §1

EC50	Binder
2.32 nM	B1
3.26 nM	B2

molecular target: T1, human TREM1 on cells; assay: receptor occupancy by flow cytometry on human neutrophils, 24 hr; loss of signal of conjugated anti-TREM1 clone TREM26 (competitor)

IC50	Binder
0.09 nM	B1
0.13 nM	B5

molecular target: T2, His tagged-human TREM1; assay: SPR (Biacore T200), monomeric format: antibody captured, His-tagged human TREM1 as analyte; remark: another data set of the same source
Description: All data were collected at 25° C. 10 mM HEPES pH 7.4, 150 mM NaCl, 3 mM EDTA, 0.05% (v/V) surfactant P20 was used as mobile buffer and for all dilution of mAbs. […] BIAevaluation software was used to perform the kinetic evaluation. Kinetic evaluation was through generation of sensorgrams which were fitted with a 1:1 Langmuir binding model.

Kd	Binder
1.55 nM	B11
2.31 nM	B12
2.77 nM	B13
2.51 nM	B14
2.65 nM	B15
2.83 nM	B16
2.42 nM	B17
3.63 nM	B18
2.01 nM	B3
1.13 nM	B19

molecular target: T3, Human chimeric TREM1-mIgG Fc; assay: SPR (Biacore T200), avid format: human TREM1-mIgG Fc captured, antibody as analyte; remark: another data set of the same source

Kd	Binder
0.55 nM	B8
0.39 nM	B1
0.88 nM	B9
< 0.1 nM	B10
0.15 nM	B2

molecular target: T1, human TREM1 on cells; assay: flow cytometry on HEK293 cells over-expressing human TREM1, Alexa 647 anti-human Fcγ secondary antibody
Description: as §1

EC50 (read off the curve)	Binder
~0.2 µg/mL	B3

molecular target: T1, human TREM1 on cells; assay: flow cytometry on human neutrophils

EC50	Binder
0.26 nM	B11
3.25 nM	B20
0.19 nM	B12
0.2 nM	B13
0.22 nM	B14
0.33 nM	B15
0.17 nM	B16
0.3 nM	B17
0.27 nM	B18
0.21 nM	B3
0.46 nM	B19

molecular target: T1, human TREM1 on cells; assay: flow cytometry on HEK293 cells over-expressing human TREM1, experiment 3
Description: as §1

EC50	Binder
4.88 nM	B1
5.34 nM	B2

molecular target: T3, Human chimeric TREM1-mIgG Fc; assay: SPR (Biacore T200), avid format: human TREM1-mIgG Fc captured, antibody as analyte; remark: another data set of the same source
Description: All data were collected at 25° C. 10 mM HEPES pH 7.4, 150 mM NaCl, 3 mM EDTA, 0.05% (v/V) surfactant P20 was used as mobile buffer and for all dilution of mAbs. Anti-mouse Fc was immobilized on a CM4 biosensor chip (GE Healthcare) using amine coupling chemistry. […] After each cycle, the surface was regenerated by injecting a glycine HCl buffer (10 mM, pH 2.0). BIAevaluation software was used to perform the kinetic evaluation. Kinetic evaluation was through generation of sensorgrams which were fitted with a 1:1 Langmuir binding model.

Kd	Binder
< 0.1 nM	B11
< 0.1 nM	B12
< 0.1 nM	B13
< 0.1 nM	B14
< 0.1 nM	B15
< 0.1 nM	B16
< 0.1 nM	B17
< 0.1 nM	B18
< 0.1 nM	B3
< 0.1 nM	B19

molecular target: T1, human TREM1 on cells; assay: cell-based or functional assay

ADCP by primary human macrophages, EC50 (nM), donor 1	ADCP by primary human macrophages, EC50 (nM), donor 2	Binder
8.69 nM	0.96 nM	B1
6.86 nM	0.86 nM	B2

molecular target: T1, human TREM1 on cells; assay: receptor occupancy by flow cytometry on human monocytes, 24 hr; loss of signal of conjugated anti-TREM1 clone TREM26 (competitor)

IC50	Binder
0.06 nM	B1
0.05 nM	B5

Substitutions are numbered along the chain they refer to. In names and notes the source's numbering stands.
